From patent US20240368664A1, “LIVE YEAST BIOSENSORS AND METHODS OF USE THEREOF” (priority 2021, published 2024)
No end group written: not given here.

Amino acid sequences for entries named in this document (tags omitted). A change or cut given only in a name is not applied to a line headed by its entry.
UniProt D6VTK4: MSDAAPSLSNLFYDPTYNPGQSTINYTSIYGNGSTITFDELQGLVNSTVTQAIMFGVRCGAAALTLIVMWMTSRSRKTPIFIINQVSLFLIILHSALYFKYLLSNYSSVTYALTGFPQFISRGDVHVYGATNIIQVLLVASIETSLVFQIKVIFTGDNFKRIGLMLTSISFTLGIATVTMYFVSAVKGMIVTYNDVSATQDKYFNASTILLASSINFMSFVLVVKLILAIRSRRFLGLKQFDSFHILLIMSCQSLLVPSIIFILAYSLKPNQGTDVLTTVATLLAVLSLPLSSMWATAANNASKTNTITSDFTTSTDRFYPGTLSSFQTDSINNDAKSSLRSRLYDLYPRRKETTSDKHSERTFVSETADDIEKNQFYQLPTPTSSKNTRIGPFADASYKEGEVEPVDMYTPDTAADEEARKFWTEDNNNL

What was measured:
ScSte2 = ScSte2 (Saccharomyces cerevisiae, UniProt D6VTK4); assay: ScSte2 biosensor dose-response, ymTurquoise2 readout, no protease (incl. ScPep alanine scan, yTC391); assay type: cell-based; settings: log of EC50, Hill function best-fit ± standard error
CaSte2 = CaSte2 (yTC384), no protease, Hill function best-fit ± standard error; for LogEC50: log of EC50; for Bottom / Top: ymTurquoise2 fluorescence
[1] = tested on: CaSte2 with protease CaBar1; settings: CaSte2 + CaBar1 (yBB02), Hill function best-fit ± standard error; for LogEC50: log of apparent EC50; for Bottom / Top: ymTurquoise2 fluorescence

| Sequence | LogEC50 (ScSte2) [M] | LogEC50 (CaSte2) [M] | Bottom (CaSte2) [A.U.] | Top (CaSte2) [A.U.] | LogEC50 [1] [M] | Bottom [1] [A.U.] | Top [1] [A.U.] |
| --- | --- | --- | --- | --- | --- | --- | --- |
| WHWLQLKPGAPMY [ScPep10A] | −6.9 ± 0.1 |  |  |  |  |  |  |
| AHWLQLKPGQPMY [ScPep1A] | −7.4 ± 0.1 |  |  |  |  |  |  |
| GARLTNFGYFEPA [CaPep2A13A] |  | −7.0 ± 0.1 | 1.5 ± 6.2 | 790 ± 10 | −6.5 ± 0.1 | −2.4 ± 22.85 | 680 ± 20 |
| GFRLTNFGAAEPG [9A10A] |  | −4.7 ± 0.1 | 2.9 ± 2.2 | 570 ± 10 | −4.6 ± 0.1 | 3.5 ± 3.8 | 510 ± 20 |
| GFRLTNFGAFEPG [CaPep9A] |  | −6.6 ± 0.1 | 17 ± 6 | 700 ± 10 | −5.9 ± 0.1 | 10 ± 7 | 480 ± 10 |
| GFRLTAFGYFEPG [CaPep6A] |  | −6.2 ± 0.1 | 4.7 ± 2.8 | 570 ± 10 | −5.9 ± 0.1 | 0.83 ± 6.2 | 450 ± 10 |
| GFRLANFGYFEPG [CaPep5A] |  | −5.2 ± 0.1 | 3.8 ± 0.3 | 15 ± 0.5 | −4.9 ± 0.1 | 6.4 ± 0.2 | 13 ± 1 |
| WHWLQLKPGQPMA [ScPep13A] | −7.2 ± 0.1 |  |  |  |  |  |  |
| GFALTNFGYFEPG [CaPep3A] |  | −6.9 ± 0.1 | 5.7 ± 3.4 | 460 ± 10 | −6.1 ± 0.1 | 14 ± 11 | 460 ± 10 |
| GFRLTNFGYFEAA [12A13A] |  | −4.8 ± 0.1 | 4.9 ± 0.5 | 170 ± 10 | −4.5 ± 0.1 | 5.6 ± 0.5 |  |
| GFRLTNFGYFEAG [12A] |  | −5.3 ± 0.1 | −1.7 ± 3.4 | 580 ± 10 | −5.0 ± 0.1 | 2.2 ± 4.8 | 540 ± 10 |
| GFRLTNAGYFEPG [7A] |  | −5.5 ± 0.1 | 3.4 ± 0.2 | 34 ± 0.4 | −5.6 ± 0.1 | 5.1 ± 0.2 | 17 ± 1 |
| AFRLTNFGYFEPG [CaPep1A] |  | −7.1 ± 0.1 | 14 ± 7 | 460 ± 9 | −6.2 ± 0.1 | 4.5 ± 14.4 | 410 ± 10 |
| GFRLTNFGYAEPG [CaPep10A] |  | −4.6 ± 0.1 | 5.6 ± 1.9 | 180 ± 10 | −4.2 ± 0.1 | 6.0 ± 0.4 | 98 ± 1 |
| WHALQLKPGQPMY [ScPep3A] | −7.2 ± 0.1 |  |  |  |  |  |  |
| GARLTNFGYFEPG [CaPep2A] |  | −7.4 ± 0.1 | 0.97 ± 10 | 460 ± 20 |  |  |  |
| WHWLQLKPAQPMY [ScPep9A] | −6.8 ± 0.1 |  |  |  |  |  |  |
| WAWLQLKPGQPMY [ScPep2A] | −7.1 ± 0.1 |  |  |  |  |  |  |
| WHWLALKPGQPMY [ScPep5A] | −7.3 ± 0.1 |  |  |  |  |  |  |
| WHWLQLKAGQPMY [ScPep8A] | −7.1 ± 0.1 |  |  |  |  |  |  |
| WHWLQAKPGQPMY [ScPep6A] | −7.1 ± 0.1 |  |  |  |  |  |  |
| WHWLQLKPGQAMY [ScPep11A] | −7.3 ± 0.1 |  |  |  |  |  |  |
| WHWLQLAPGQPMY [ScPep7A] | −6.9 ± 0.1 |  |  |  |  |  |  |
| GFRATNFGYFEPG [CaPep4A] |  | −6.5 ± 0.1 | 3.4 ± 4.9 | 460 ± 10 | −6.1 ± 0.1 | 11 ± 8 | 410 ± 8.4 |
| GFRLTNFAYFEPG [CaPep8A] |  | −6.4 ± 0.1 | 15.3 ± 21 | 640 ± 20 | −5.5 ± 0.1 | 13 ± 8 | 460 ± 10 |
